Measurements from ChEMBL document CHEMBL1125543, “Urea and 2-imidazolidone derivatives of the muscarinic agents oxotremorine and N-methyl-N-(1-methyl-4-pyrrolidino-2-butynyl)acetamide” (J Med Chem, 1992).

Experiments:
[1] = target: Muscarinic acetylcholine receptor M3 (Cavia porcellus) (UniProt Q8VH26); test: Maximum contractile response relative to carbachol (E max) in guinea pig ileum as muscarinic acetylcholine receptor M3 agonistic/antagonistic activity; format: functional, tissue-based
[2] = target: Muscarinic acetylcholine receptor M3 (Cavia porcellus) (UniProt Q8VH26); test: Relative efficacies determined with oxotremorine as the reference in guinea pig ileum, as a measure of muscarinic acetylcholine receptor M3 agonistic activity; format: functional, tissue-based

For `CC1CCN(CC#CCN2CCCC2)C1=O` (configuration not stated), the Emax [1] was 1 and the Efficacy [2] was 0.1.
